These are literature values, as cited in publication PMC5372507.

The target of data set [1] is CD146 (Homo sapiens) (UniProt P43121).
The target in data set [2] is Unc5B (Homo sapiens) (UniProt Q8IZJ1).

On to Netrin-1 (from UniProt O95631), for which the Kd (in general, the equilibrium constant for the complex coming apart) was 1.3 nM in data set [1] and 5.1 nM in data set [2].
